AlphaSeq binding of Ab-14 heavy chain variants to a spike HR2 peptide

From the AlphaSeq antibody data of Li et al. 2023 (doi:10.1038/s41467-023-39022-2), copy in the FLAb collection.

Target peptide (SARS-CoV-2 spike, HR2 region): PDVDLGDISGINAS

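The starting antibody came from a phage panning campaign against this peptide. These sequences belong to a second round, designed from the earlier measurements on random variants of the parent. Several design methods are mixed in this list. The scFvs were displayed on barcoded MATa yeast, the peptide on MATalpha yeast. After mating in shaken culture at 30 °C for 16 h, diploids were selected and their barcode pairs sequenced. Scores were corrected for input abundance and mapped to Kd with protein pairs of known affinity run in the same pool. The assay was run in six technical replicates.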

Ab-14 is the parent antibody, in scFv form: VH, then a 15-residue (Gly4Ser)3 linker, then VL. The light chain is unchanged in all variants.
VH: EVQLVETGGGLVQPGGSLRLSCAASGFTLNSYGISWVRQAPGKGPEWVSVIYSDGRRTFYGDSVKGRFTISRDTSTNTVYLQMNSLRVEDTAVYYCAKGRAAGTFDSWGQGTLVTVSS
VL: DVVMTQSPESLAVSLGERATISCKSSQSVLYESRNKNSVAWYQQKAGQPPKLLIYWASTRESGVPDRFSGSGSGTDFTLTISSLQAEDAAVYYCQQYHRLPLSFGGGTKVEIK

Each variant is given by its three heavy chain CDRs, as the data file delimits them; those of the parent are GFTLNSYGIS, VIYSDGRRTFYGDSVK, GRAAGTFDS.
Variants here have more than six changes.
The read-out is the apparent dissociation constant on a log10 scale (nM): the lower, the stronger.
Averages over replicates are reported, and they cover detected replicates only.
"nd" marks a missing value. The strain was present, yet no cells mated with the target were sequenced in any replicate, which points to weak or no binding.

CDR-H1	CDR-H2	CDR-H3	mean, log10 nM	seen in	control signals
GFDLDEYGIS	VIYADGMRTAYADSVK	GNVAGTFDF	-0.77	6/6	0/18
GFDLNEYGIS	VIYADGMRTFYADSVK	GQEAGTFDV	-0.73	6/6	0/18
GFDLNEYGIS	VIYADGRRTFYIDSVK	GENAGTFNV	-0.59	6/6	0/18
GFDLNEYGIS	VIYADGKRTAYADDVK	GNVAGTFDL	-0.53	6/6	0/18
GEQLDEYGIS	VIYADGRRTAYSQSVK	GQNGGIIDV	nd	0/6	0/18
GFDLNEYGIS	VIYADGMRTAYADKVK	GETAGTFDQ	-0.61	6/6	0/18
GFELDEYGIS	VIYADGKRKAYDQAVK	GKTGGVKLD	nd	0/6	0/18
GFDLNEYGIS	VIYADGMRTFYSDSVK	GNVAGTFDK	-1.03	6/6	0/18
GFDLNEYGIS	VIYADGQRTFYADSVK	GNQAGTFDI	-0.42	6/6	0/18
GFDLNEYGIS	VIYADGMRTFYTDSVK	GTNAGTFDV	-0.47	6/6	0/18
GFNLDEYGIS	VIYADGYRRAYAQSVK	GMNSGTGFT	nd	0/6	0/18
GFDLNEYGIS	VIYADGRRTAYDDSVK	GQVAGTFDE	-0.77	6/6	0/18
GFDLNEYGIS	VIYADGKRTFYADSVK	GEYAGTFDI	0.18	6/6	0/18
GFDMEEFGIS	VIYADGQRLAYADEVK	GENAGSFDI	0.48	5/6	0/18
GFNLDEYGIS	VIYADGRRTFYSDDVK	GEAAGTFDI	-0.29	6/6	0/18
GFDLNEYGIS	VIYADGQRTAYANSVK	GEVAGTFDV	-0.49	6/6	0/18
GFDLNEYGIS	VIYADGSRTAYADSVK	GENAGTFDL	-0.25	6/6	0/18
GDDLAEYGVS	VIYADGKRTKYSDHVK	GENGGFFDA	nd	0/6	0/18
GKDLEEYGIS	VIYADGRRSDYTDNVK	GHVGYIFMM	nd	0/6	0/18
GFDLNEYGIS	VIYADGMRTFYADDVK	GENAGTFDM	-0.46	6/6	0/18
GFDLNEYGIS	VIYADGSRTAYAESVK	GENAGTFDV	0.36	6/6	0/18
GFDLNEYGIS	VIYADGRRTFYADSVK	GQVAGTFSV	-0.56	6/6	0/18
GFDLDEYGIS	VIYADGKRTAYSDSVK	GSNAGTFDV	-0.52	6/6	0/18
GFDLNEYGIS	VIYADGRRTFYTDNVK	GNNAGTFDS	-0.57	6/6	0/18
GFDLNDYGIS	VIYADGRRTFYADSVK	GEVAGTFDI	0.16	6/6	0/18
GFDLNEYGIS	VIYADGRRTFYTDSVK	GEHAGSFDV	-0.29	6/6	0/18
GFNLDEYGIS	VIYADGRRTFYADSVK	GTHAGTFDT	-0.79	6/6	0/18
GFNLDEYGIS	VIYADGQRTFYADSVK	GSHAGTFDL	-0.63	6/6	0/18
GFDLNEYGIS	VIYADGQRTFYIDSVK	GTNAGTFDS	-0.30	6/6	0/18
GFEIDEYGIS	VIYADGIRSSYNDNVK	GQLGTAFDL	nd	0/6	1/18
GFDLNEYGIS	VIYADGRRTFYTDSVK	GQTAGTFDV	-0.26	6/6	0/18
GKKLDEYGIS	VIYADGVRTHYAESVK	GLHGTYLVI	nd	0/6	0/18
GFDLNEYGIS	VIYADGVRTFYADSVK	GNEAGTFDV	-0.36	6/6	0/18
GFDLNEYGIS	VIYADGMRTQYIDSVK	GEVAGTFDA	0.35	6/6	0/18
GFDLNEYGIS	VIYADGFRTFYTDSVK	GEVAGTFDL	0.30	6/6	0/18
GFDLNEYGIS	VIYADGMRTFYADSVK	GNQAGTFDI	-0.15	6/6	1/18
GFDLDEQGIS	VIYADGQRTAYADQVK	GMQGVIART	-0.52	6/6	0/18
GFDLNEYGIS	VIYADGMRKAYADSVK	GENAGTFDL	-0.45	6/6	0/18
GFDLNEYGIS	VIYADGKRTFYTDSVK	GTFAGTFDV	-0.42	6/6	1/18
GFDLEEYGIS	VIYADGRRTAYADSVK	GQNAGTFDV	-0.24	6/6	0/18
GSDLEEYGIS	VIYADGMRKQYTNSVK	GEDSVTTFT	nd	0/6	0/18
GDSLAEYGIS	VIYADGERTAYKNKFK	GWVAGYFDV	nd	0/6	0/18
GFDLNEYGIS	VIYADGMRTFYTDSVK	GEGAGTFDS	0.23	6/6	0/18
GFDLEDYGIS	VIYADGRRTAYADSVK	GNNAGTFDV	-0.31	6/6	0/18
GQDLNEYGIS	VIYADGLRTAYLNNVK	GVNAGFDQY	1.75	5/6	1/18
GFNLDEYGVS	VIYADGNRKQYTEDVK	GTNGGAVDL	2.46	2/6	2/18
GFDLNEYGIS	VIYADGMRTVYTDSVK	GNEAGTFDS	-0.08	6/6	0/18
GFSFDEYGIS	VIYADGKRSFYADTVK	GNKDMTFDI	nd	0/6	0/18
GFDLDEYGIS	VIYADGKRTRYSNNVK	GGVGGIGLS	1.57	1/6	0/18
GFDLNEYGIS	VIYADGMRTFYADSVK	GNNAGTFDI	nd	0/6	0/18
GFDLNEYGIS	VIYADGMRTQYIDSVK	GETAGTFDV	-0.38	6/6	0/18
GFDLESYGIS	VIYADGMRTSYTNNVK	GQNVMISTG	nd	0/6	0/18
GFDLEDYGIS	VIYADGKRTAYADSVK	GEVAGTFDV	-0.39	6/6	1/18
GQDLNEYGIS	VIYADGKRTAYLQNVK	GVNAGFDQY	nd	0/6	0/18
GFDLDEYGIS	VIYADGVRTAYADDVK	GNVAGTFDI	-0.40	6/6	0/18
GFDLNEYGIS	VIYADGQRKFYADSVK	GNTAGTFDV	-0.94	6/6	0/18
GFDLNEYGIS	VIYADGMRTAYADDVK	GNNAGTFDM	0.11	6/6	0/18
GFDLNEYGIS	VIYADGRRTFYTDSVK	GEFAGTFDV	-0.24	6/6	0/18
GFDLNEYGIS	VIYADGYRTAYADSVK	GENAGTFDV	-0.63	6/6	0/18
GKEIEEYGIS	VIYADGMRQAYAESVK	GQVAGTGKF	nd	0/6	0/18
GDSLEEYGIS	VIYADGKRTAYKNKFK	GQVAGYFDV	3.67	1/6	0/18
GFSLDEYGIS	VIYADGVRTQYHPKVK	GLQGFIFDL	nd	0/6	0/18
GFDLNEYGIS	VIYADGIRTAYADDVK	GQNAGTFDV	-0.39	6/6	0/18

Excerpt, the final 6 entries:

CDR-H1	CDR-H2	CDR-H3	mean, log10 nM	seen in	control signals
GFDLNEYGIS	VIYADGRRTFYTDSVK	GEFAGTFDV	-0.24	6/6	0/18
GFDLNEYGIS	VIYADGYRTAYADSVK	GENAGTFDV	-0.63	6/6	0/18
GKEIEEYGIS	VIYADGMRQAYAESVK	GQVAGTGKF	nd	0/6	0/18
GDSLEEYGIS	VIYADGKRTAYKNKFK	GQVAGYFDV	3.67	1/6	0/18
GFSLDEYGIS	VIYADGVRTQYHPKVK	GLQGFIFDL	nd	0/6	0/18
GFDLNEYGIS	VIYADGIRTAYADDVK	GQNAGTFDV	-0.39	6/6	0/18

The range of this assay differs from that of the first round, and the authors advise against merging the two.
In the paper, a design with two or fewer of six values counts as a poor binder.
Three control strains display no target. For all heavy chain designs, 1% of the pairings with them gave a signal, with a median of 2.08 and one signal in twenty below 0.84, so weak values seen in few replicates may be background. Also given: how often the same scFv was detected with the empty control strains.